Legend:
[1] = biological target: T1, human opioid receptor-like (ORL-1) (Homo sapiens, UniProt P41146); experiment: In vitro ORL-1 receptor binding assay ([3H]-nociceptin displacement); conditions: for Ki: read-out: ORL-1 Ki, Average ± Std Deviation, procedure of Example 6
[2] = biological target: T1, human opioid receptor-like (ORL-1); experiment: ORL-1 receptor [35S]GTPγS functional binding assay; type: biochemical; conditions: mean ± SEM; procedure of Example 7
[3] = biological target: recombinant delta opioid receptor expressed in CHO-K1 cells (Homo sapiens, UniProt P41143); experiment: δ-opioid receptor binding assay ([3H]-Naltrindole displacement); conditions: read-out: Ki for the δ-opioid receptor
[4] = biological target: human kappa opioid receptor (Homo sapiens, UniProt P41145); experiment: κ-opioid receptor binding assay ([3H]-U69,593 displacement); conditions: read-out: Ki for the κ-opioid receptor
[5] = biological target: human μ-opioid receptors (Homo sapiens, UniProt P35372); experiment: μ-opioid receptor binding assay ([3H]-diprenorphine displacement); conditions: read-out: Ki for the μ-opioid receptor

NC(=O)C(=O)c1cn([C@H]2C[C@H]3CCC[C@@H](C2)N3[C@H]2C[C@@H]3CCC[C@@H](C3)C2)c2ccccc12
Ki [1]: 1 nM

O=C(O)C(=O)c1cn([C@H]2C[C@H]3CCC[C@@H](C2)N3[C@H]2C[C@@H]3CCC[C@@H](C3)C2)c2ccccc12
Ki [1]: 3.98 nM
ORL-1 GTPγS Emax [2]: 9 ± 8%

O=C(O)Cc1cn([C@H]2C[C@H]3CCC[C@@H](C2)N3[C@H]2C[C@@H]3CCC[C@@H](C3)C2)c2ccccc12 [Compound 7]
Ki [1]: 3.02 nM
ORL-1 GTPγS Emax [2]: 0.33 ± 0.67%

c1ccc2c(c1)ccn2[C@H]1C[C@H]2CCC[C@@H](C1)N2[C@H]1C[C@@H]2CCC[C@@H](C2)C1 [Compound 11]
Ki [1]: 1.73 nM
ORL-1 GTPγS Emax [2]: 23.5 ± 1.26%

O=C(O)Cc1cn([C@H]2C[C@H]3CCC[C@@H](C2)N3C2CCCCCCCCC2)c2ccccc12 [Compound 23, 2-(1-((1R,3r,5S)-9-cyclodecyl-9-azabicyclo[3.3.1]nonan-3-yl)-1H-indol-3-yl)acetic acid]
Ki [3]: > 20000 nM
selectivity for the ORL-1 receptor relative to the μ-opioid receptor, δ-opioid receptor and κ-opioid receptor [1]: several orders of magnitude
Ki [1]: 25.5 nM
Ki [4]: > 20000 nM
Ki [5]: > 20000 nM
ORL-1 GTPγS Emax [2]: 74.33 ± 2.85%

— patent US9963458B2, “Indole and indoline-type piperidine compounds and uses thereof” (priority 2012, dated 2018)
